Measured values from patent publication US6656972B2, “Control of pain with endogenous cannabinoids” (Neurosciences Research Foundation, Inc., priority 1998, dated 2003).

Experiment: Solubility in the injection vehicle (10% DMSO)
Settings: 10% DMSO in saline

N-[(1S)-endo-1,3,3-trimethyl bicyclo [2.2.1]heptan-2-yl]-5-(4-chloro-3-methylphenyl)-1-(4-methylbenzyl)-pyrazole-3-carboxamide [SR144528]
solubility in the injection vehicle: not soluble; also recorded: limited solubility

“Also recorded” adds a separate entry of the source.
